Binding of CDR-mutated scFvs to a peptide of the spike HR2 region

From the AlphaSeq antibody data of Li et al. 2023 (doi:10.1038/s41467-023-39022-2), copy in the FLAb collection.

Target: peptide PDVDLGDISGINAS, taken from heptad repeat 2 (HR2) of SARS-CoV-2 spike.

Parent: Ab-14, a human scFv built as VH, three GGGGS repeats, VL. Only the CDRs of the light chain vary.
VH: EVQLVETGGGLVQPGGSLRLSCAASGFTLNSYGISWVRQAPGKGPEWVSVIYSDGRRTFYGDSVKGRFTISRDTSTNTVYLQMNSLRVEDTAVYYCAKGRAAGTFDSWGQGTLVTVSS
VL: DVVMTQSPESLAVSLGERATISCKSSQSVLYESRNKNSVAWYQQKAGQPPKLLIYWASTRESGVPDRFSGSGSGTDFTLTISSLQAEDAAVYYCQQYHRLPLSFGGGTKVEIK

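The parent was found by panning a naive human phage display library on the peptide. These sequences belong to a second round, designed from the earlier measurements on random variants of the parent. Their group label is 14L_En_HC (En: ensemble of fine-tuned language models; HC: hill climbing; a sequence that several methods proposed may carry one label only). The scFvs were displayed on barcoded MATa yeast, the peptide on MATalpha yeast. Binding brings cells together so that they mate, and sequencing counts the barcode pairs among the diploids. Each replicate has its own calibration line, from reference interactions of the BCL2 family. There are six technical replicates.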

Each variant is given by its three light chain CDRs, as the data file delimits them; those of the parent are KSSQSVLYESRNKNSVA, WASTRES, QQYHRLPLS.
Values are log10 of the apparent Kd in nM; lower means stronger binding.
An entry "ND" has no value in the source: the pair was not observed among the diploids in that replicate. This suggests poor binding but is not conclusive.
The authors' rule: three or more of the six replicates give a measured affinity, fewer mean a poor binder.

CDR-L1	CDR-L2	CDR-L3	replicates, log10 nM	empty controls
TISQSAYWESRNKNSVA	QTSTREE	QDYDRLPLS	1.49 / 1.60 / 1.39 / 1.88 / 1.99 / 1.81	1 of 18 (2.56)
KLGSMVLLEYGTKNSIA	QQSTREE	QQYDRLPLS	0.47 / 0.51 / 0.34 / 0.57 / 0.59 / 0.47	1 of 18 (3.05)
NVGQLMDGETRNHNSVA	HQSTRED	QHYHRLPLS	2.09 / 2.71 / 1.96 / 1.71 / 2.17 / 1.42	0 of 18
HISDLIMVASRNKNSVA	DESMRPD	QQYHRLPLS	0.25 / -0.11 / -0.04 / -0.16 / 0.02 / 0.24	1 of 18 (2.54)
MLLQSTMYGERARNSVA	HASTRED	QQYHRLPLI	1.33 / 1.32 / 0.44 / 0.75 / 1.33 / 1.14	0 of 18
MAYGGDMLETVTRNSVA	NAETRAD	QDYHRLPLS	2.32 / 1.93 / 1.61 / 1.55 / 2.74 / 3.15	1 of 18 (2.81)
KLSQATRMESRNKASVA	ENSTRGS	QQYFRLPLS	0.40 / 0.10 / 0.13 / -0.24 / 0.00 / 0.40	1 of 18 (1.93)
MFSQLVYTGSRTRNAVA	QASTREN	QQYHHLPLS	1.49 / 0.86 / 1.61 / 0.91 / 0.82 / ND	1 of 18 (1.48)
TISQMFLGESRARNSVA	QASTRES	QSYDRLPLS	1.34 / 1.03 / 1.17 / 0.96 / 1.09 / 1.22	2 of 18 (2.38)
TISQSAHMESHNKNSVA	DLNLRGS	QQYDRLPLS	1.72 / 1.06 / 0.46 / 0.21 / 0.47 / 0.82	0 of 18
MIAESVMYQSRNKNSVA	DNSTRED	QCYDRLPLS	1.36 / 1.61 / 2.16 / 2.22 / 1.25 / 1.21	0 of 18
KLSSFHQVESINKSNVA	EMVTRES	QQYDRLPLS	ND / 2.38 / 1.60 / 2.17 / 3.74 / 1.87	2 of 18 (2.62)
KLGQMTGIESHNKNSLA	DANRRES	QQYHRLPLS	-0.20 / -0.49 / -0.36 / -0.53 / -0.45 / -0.36	1 of 18 (1.55)
KLLQEVTGRQQNRNSVA	HNSTRED	QQYDRLPLI	1.81 / ND / ND / ND / ND / ND	0 of 18
MFSQTVMYESTMRNNVA	QTSTRES	QQYDHLPLS	ND / 1.30 / ND / 1.91 / ND / ND	1 of 18 (1.66)
KISMLQRYESQAKNNIA	EMSRREE	QQYHRLPLS	0.07 / -0.46 / -0.69 / -0.33 / -0.88 / -0.44	0 of 18
MISQLFMYGSRNYNSVA	QASTRES	QQYHRLPLI	0.87 / 0.86 / 0.82 / 1.17 / 1.61 / 1.33	1 of 18 (2.51)
NFPQEVMYESHFKNNVA	QTSTREE	QQYDHLPLS	0.09 / 0.24 / -0.04 / -0.04 / -0.19 / 0.07	5 of 18 (3.21)
SLAESAHMESRNKNSVA	DNNTRES	QHYDRLPLS	3.19 / ND / 4.89 / 3.73 / ND / ND	5 of 18 (3.42)
MIAQGLRGVGRNKNSIA	NAQTRES	QHYHRLPLS	ND / ND / 3.22 / ND / ND / ND	0 of 18
TMPQVWMYESKQKNNVA	EQSTRED	QQYFRLPLS	0.58 / 0.31 / 0.06 / -0.07 / 0.06 / 0.15	0 of 18
KIGGVTNGISRSKNSVA	EQSTRND	QQYDRLPLS	0.85 / 0.13 / 0.14 / -0.13 / 0.43 / 0.58	1 of 18 (2.25)
KISMLQRYQSEAKNNIA	EMSRREE	QQYHRLPLS	-0.07 / 0.02 / 0.07 / 0.03 / -0.19 / 0.24	1 of 18 (1.89)
QLLMATMQETYNKNSVA	HAQTRED	QSYHRLPLS	0.42 / 0.65 / 0.64 / 0.24 / 0.76 / 0.53	2 of 18 (2.48)
QLSGPMMSESKNKNSVA	EFSTRGS	QQYHRLPLS	ND / ND / ND / ND / ND / ND	0 of 18
KLSESAHFESRKKNSVA	ENSTREN	QQYDHLPLS	1.90 / 2.23 / ND / 1.94 / 1.68 / ND	2 of 18 (2.93)
KLSQHVNFFGHAINSVA	EMETREN	QQYDRLPLS	1.15 / 0.83 / 0.48 / 0.98 / 0.83 / 1.14	0 of 18
HFSQVTMYGSWMKNSVA	QTSTREE	QQYDRLPLS	0.05 / -0.36 / 0.51 / -0.24 / -0.03 / 0.19	0 of 18
KIYQNMGETQRNKNSVA	EVSTVPS	QQYWRLPLS	1.04 / 0.43 / 0.47 / 0.76 / 0.68 / 0.73	1 of 18 (1.48)
KLSMSMLMEQRHKNSVA	ENSTREE	QHYHRLPLS	ND / ND / ND / ND / ND / ND	0 of 18
KLGGLMTWEEKARNSVA	QQETRAE	QQYHHLPLS	0.99 / 1.84 / 0.37 / 0.79 / 0.41 / 1.53	2 of 18 (2.08)
NVGQYMDGESRNKNSVA	HQSTRED	QHYHRLPLS	ND / 1.81 / 1.24 / 2.59 / 0.62 / 1.27	0 of 18
MISQLFMYGSRNYNSVA	QASERES	QQYDRLPLI	1.73 / 1.06 / 1.50 / 1.52 / 1.43 / 1.51	2 of 18 (1.63)
KISMMYRYESTASNSIA	EVTTRAE	QSYHRLPLS	1.30 / 1.63 / ND / 1.11 / 1.30 / 2.09	0 of 18
KIAATVLYESGQANSVA	QNSTRES	QQYHRLPLS	2.58 / 2.08 / 1.36 / 2.02 / 1.62 / 1.45	2 of 18 (2.91)
HLSQSTDLEMVHKNSIA	DLMTRES	QQYHRLPLS	0.63 / 0.68 / 0.43 / 0.48 / 0.50 / 0.60	4 of 18 (2.92)
KISYMGEHFSTNHSAIA	QASQREQ	QQYHRLPIS	0.96 / 1.33 / 1.12 / 1.24 / 1.17 / 0.89	2 of 18 (2.37)
MISEAVMYESRNRNSVA	DNSTRED	QCYDRLPLS	ND / ND / ND / ND / ND / ND	0 of 18

The parent sequence was in this pool as ten entries: three were never detected, three once, and four in most replicates, with averages from 0.34 to 2.37.
Nonspecific signal, from three strains lacking the peptide, appeared in 4% of pairings of all light chain designs, centred on 2.64 (5% of these signals below 1.59); values are not corrected for it. The control count says in how many pairings with the empty strains this scFv gave a signal, with their mean in brackets.
The range of this assay differs from that of the first round, and the authors advise against merging the two.